## Ab-14 heavy chain CDR variants: yeast mating affinities

Antigen: PDVDLGDISGINAS, a 14-residue peptide of the SARS-CoV-2 spike HR2 region.

Ab-14 is the parent antibody, in scFv form: VH, then the linker GGGGSGGGGSGGGGS, then VL. The light chain is unchanged in all variants.
VH: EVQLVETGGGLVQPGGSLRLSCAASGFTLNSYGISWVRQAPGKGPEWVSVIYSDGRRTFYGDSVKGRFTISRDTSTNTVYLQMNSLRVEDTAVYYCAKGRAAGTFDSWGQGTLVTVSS
VL: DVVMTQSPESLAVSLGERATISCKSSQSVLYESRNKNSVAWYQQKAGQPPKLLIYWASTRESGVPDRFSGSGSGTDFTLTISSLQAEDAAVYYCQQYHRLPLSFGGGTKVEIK

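Phage display of a naive human antibody library on the peptide gave the parent. This is the validation round: designs drawn from the data on random variants, tested in the same kind of assay. Group labels follow the data file (Ctrl: baseline library sampled from a position-specific scoring matrix, with some repeated check sequences; GPLM: also part of the Gaussian process libraries; Gen: genetic algorithm; Gibbs: Gibbs sampling; a sequence that several methods proposed may carry one label only). The scFvs were displayed on barcoded MATa yeast, the peptide on MATalpha yeast. After mating in shaken culture at 30 °C for 16 h, diploids were selected and their barcode pairs sequenced. Read counts were normalised to the haploid input and turned into Kd by a linear fit to BCL2-family pairs of known affinity, for each replicate. Mating was done six times.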

Substitutions are numbered in sequence along the VH above, starting at 1 (not Kabat). Values are log10 of the apparent Kd in nM; lower means stronger binding. The mean shown is taken over the replicates in which the pair was detected. Where no diploid with the target was found in that replicate, the entry reads "nd": below detection, most likely a poor binder, though not proof of it. The parent sequence was in this pool as ten entries: three were never detected, three once, and four in most replicates, with averages from 0.34 to 2.37. Three control strains display no target. For all heavy chain designs, 1% of the pairings with them gave a signal, with a median of 2.08 and one signal in twenty below 0.84, so weak values seen in few replicates may be background. Also given: how often the same scFv was detected with the empty control strains, with their mean in brackets. Values of this round are not directly comparable with the first-round values of the same sequences. In the paper, a design with two or fewer of six values counts as a poor binder. A sequence that the file lists under several names has all its replicates listed entry by entry, parted by semicolons.

changes | group | log10 Kd, replicates | log10 Kd (nM), mean | empty controls
L29R G61S K65R | Ctrl | 2.05 / nd / 1.95 / nd / nd / nd | 2.00 | 0 of 18
F59Y A102P T104I D106F | Ctrl | nd / nd / nd / nd / 1.60 / 1.75 | 1.67 | 0 of 18
S53A S107T | Ctrl+GPLM_Gen | 0.26 / 0.11 / 0.13 / 0.22 / 0.17 / -0.12; 0.15 / 0.68 / 0.24 / -0.06 / 0.66 / 0.93 | 0.28 | 0 of 36
G103L | Ctrl | nd / 0.71 / nd / nd / nd / nd | 0.71 | 0 of 18
N30E S35G R100F | Ctrl | nd / nd / nd / nd / nd / nd | nd | 0 of 18
T58A G61S | Ctrl | 2.00 / 1.09 / 1.12 / 1.33 / 0.92 / 1.90 | 1.39 | 1 of 18 (3.31)
S31D S107C | Ctrl | 1.16 / 0.63 / 0.91 / 0.22 / 0.44 / 0.43 | 0.63 | 1 of 18 (0.94)
R100Y A101L | Ctrl | nd / nd / 1.04 / 1.75 / nd / 2.31 | 1.70 | 0 of 18
I34E K65R T104A S107T | Ctrl | nd / nd / nd / nd / nd / nd | nd | 0 of 18
F27L G33F F59A S63F | Ctrl | nd / nd / nd / nd / nd / nd | nd | 0 of 18
N30L S31D R56K | Ctrl | 0.51 / 1.05 / 1.55 / 1.17 / 1.02 / 1.79 | 1.18 | 0 of 18
G61H A102S | Ctrl | nd / nd / nd / nd / nd / nd | nd | 0 of 18
N30D R56E G61I A102V | Ctrl | nd / nd / nd / nd / nd / nd | nd | 0 of 18
Y32Q | Ctrl | 1.57 / 1.48 / nd / -0.15 / nd / nd | 0.97 | 0 of 18
I34G G61S | Ctrl | nd / nd / nd / nd / nd / nd | nd | 0 of 18
T28P D106R | Ctrl | nd / 2.00 / nd / nd / 3.18 / nd | 2.59 | 1 of 18 (2.13)
R100E S107L | Ctrl+GPLM_Gibbs | nd / nd / 1.45 / nd / 2.03 / 1.90; nd / nd / 0.61 / 1.52 / 0.49 / nd | 1.33 | 0 of 36
F27E R100D | Ctrl | nd / 2.64 / nd / 1.41 / nd / nd | 2.03 | 1 of 18 (1.20)
T28N S31M G99I T104L | Ctrl | nd / nd / nd / nd / nd / nd | nd | 0 of 18
L29P K65R F105M S107K | Ctrl | nd / nd / nd / nd / nd / nd | nd | 1 of 18 (1.41)
G61S S63A | Ctrl | 0.78 / 0.53 / 1.17 / 0.87 / 0.61 / 0.77 | 0.79 | 0 of 18
T28S S31E G33F V50A R56E A101L G103V | Ctrl | nd / nd / nd / nd / nd / nd | nd | 0 of 18
V64F A101E | Ctrl | 1.29 / 0.46 / 0.95 / 0.31 / 1.50 / 0.40 | 0.82 | 0 of 18
F59S G61E F105K | Ctrl | 1.46 / 1.60 / nd / 1.51 / 1.24 / 2.39 | 1.64 | 0 of 18
S31D S53A F105W | Ctrl | 0.82 / 0.83 / 1.03 / 0.61 / 0.51 / 0.47 | 0.71 | 0 of 18
T28N S31D K65R A101N A102S D106M | Ctrl | nd / nd / nd / nd / nd / nd | nd | 0 of 18
S31D D54G G61H S107T | Ctrl | nd / nd / nd / nd / nd / nd | nd | 0 of 18
N30D S35H G61A K65R | Ctrl | 1.61 / 1.46 / 0.62 / 1.20 / 1.32 / 0.77 | 1.16 | 1 of 18 (0.95)
A101C T104E S107D | Ctrl | nd / nd / nd / nd / nd / nd | nd | 0 of 18
Y32F G61R | Ctrl | nd / nd / nd / nd / nd / nd | nd | 0 of 18
N30G A102T F105S | Ctrl | 1.21 / nd / nd / 1.32 / nd / nd | 1.27 | 0 of 18
S31E I34Y S53A R100S A101T | Ctrl | nd / nd / nd / nd / 1.44 / nd | 1.44 | 0 of 18
K65V A101M | Ctrl | nd / nd / nd / nd / nd / nd | nd | 0 of 18
F27D T28E S31Q | Ctrl | nd / nd / nd / 1.69 / nd / nd | 1.69 | 0 of 18
Y32Q S35C R56S G61S | Ctrl | nd / nd / nd / nd / nd / nd | nd | 0 of 18
N30W I51N S107A | Ctrl | nd / nd / nd / nd / nd / nd | nd | 0 of 18
L29P N30D Y32F S63K G99D | Ctrl | nd / nd / nd / nd / nd / nd | nd | 1 of 18 (1.46)
G55T G61T | Ctrl | nd / nd / nd / nd / nd / nd | nd | 0 of 18
T28D S31K F59H | Ctrl | 0.95 / 1.37 / 0.94 / 1.73 / 1.75 / 0.97 | 1.28 | 2 of 18 (1.77)
G61A A101E D106E S107T | Ctrl | 0.73 / 0.41 / 0.35 / 0.54 / -0.19 / 0.70 | 0.42 | 1 of 18 (1.93)
G61D A101I | Ctrl | -0.06 / -0.02 / 0.30 / -0.17 / 0.32 / 0.24 | 0.10 | 0 of 18

Repeated from above, the 6 best binders with a signal in all replicates:

| changes | group | log10 Kd, replicates | log10 Kd (nM), mean | empty controls |
|---|---|---|---|---|
| G61D A101I | Ctrl | -0.06 / -0.02 / 0.30 / -0.17 / 0.32 / 0.24 | 0.10 | 0 of 18 |
| S53A S107T | Ctrl+GPLM_Gen | 0.26 / 0.11 / 0.13 / 0.22 / 0.17 / -0.12; 0.15 / 0.68 / 0.24 / -0.06 / 0.66 / 0.93 | 0.28 | 0 of 36 |
| G61A A101E D106E S107T | Ctrl | 0.73 / 0.41 / 0.35 / 0.54 / -0.19 / 0.70 | 0.42 | 1 of 18 (1.93) |
| S31D S107C | Ctrl | 1.16 / 0.63 / 0.91 / 0.22 / 0.44 / 0.43 | 0.63 | 1 of 18 (0.94) |
| S31D S53A F105W | Ctrl | 0.82 / 0.83 / 1.03 / 0.61 / 0.51 / 0.47 | 0.71 | 0 of 18 |
| G61S S63A | Ctrl | 0.78 / 0.53 / 1.17 / 0.87 / 0.61 / 0.77 | 0.79 | 0 of 18 |

Values reported by Li et al. 2023, doi:10.1038/s41467-023-39022-2 (FLAb copy).